The target in assay [1] is Glutamate NMDA receptor; Grin1/Grin2c (Rattus norvegicus) (UniProt P35439+Q00961). The assay is described as follows: Positive allosteric modulation of recombinant rat GluN1/GluN2C receptor expressed in xenopus laevis oocyte assessed as potentiation of glutamate and glycine-induced current response at 30 uM at holding potential -40mV by two electrode voltage clamp method relative to control. In short, it runs like this: (§1)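 Two-electrode voltage clamp at -40 mV, 23°C, pH 7.4 Ba²⁺ recording solution, on Xenopus oocytes expressing rat NMDA receptors. Currents were evoked by 100 µM glutamate plus 30 µM glycine, with compound co-applied (DMSO 0.05–0.5% final). […] Each compound used at least 4 oocytes from at least 2 frogs.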

Chains of the proteins cited; added tags and fusions are not shown. Lines headed by an entry give the natural chain unless they say otherwise; changes in a name come on top.
UniProt Q00961: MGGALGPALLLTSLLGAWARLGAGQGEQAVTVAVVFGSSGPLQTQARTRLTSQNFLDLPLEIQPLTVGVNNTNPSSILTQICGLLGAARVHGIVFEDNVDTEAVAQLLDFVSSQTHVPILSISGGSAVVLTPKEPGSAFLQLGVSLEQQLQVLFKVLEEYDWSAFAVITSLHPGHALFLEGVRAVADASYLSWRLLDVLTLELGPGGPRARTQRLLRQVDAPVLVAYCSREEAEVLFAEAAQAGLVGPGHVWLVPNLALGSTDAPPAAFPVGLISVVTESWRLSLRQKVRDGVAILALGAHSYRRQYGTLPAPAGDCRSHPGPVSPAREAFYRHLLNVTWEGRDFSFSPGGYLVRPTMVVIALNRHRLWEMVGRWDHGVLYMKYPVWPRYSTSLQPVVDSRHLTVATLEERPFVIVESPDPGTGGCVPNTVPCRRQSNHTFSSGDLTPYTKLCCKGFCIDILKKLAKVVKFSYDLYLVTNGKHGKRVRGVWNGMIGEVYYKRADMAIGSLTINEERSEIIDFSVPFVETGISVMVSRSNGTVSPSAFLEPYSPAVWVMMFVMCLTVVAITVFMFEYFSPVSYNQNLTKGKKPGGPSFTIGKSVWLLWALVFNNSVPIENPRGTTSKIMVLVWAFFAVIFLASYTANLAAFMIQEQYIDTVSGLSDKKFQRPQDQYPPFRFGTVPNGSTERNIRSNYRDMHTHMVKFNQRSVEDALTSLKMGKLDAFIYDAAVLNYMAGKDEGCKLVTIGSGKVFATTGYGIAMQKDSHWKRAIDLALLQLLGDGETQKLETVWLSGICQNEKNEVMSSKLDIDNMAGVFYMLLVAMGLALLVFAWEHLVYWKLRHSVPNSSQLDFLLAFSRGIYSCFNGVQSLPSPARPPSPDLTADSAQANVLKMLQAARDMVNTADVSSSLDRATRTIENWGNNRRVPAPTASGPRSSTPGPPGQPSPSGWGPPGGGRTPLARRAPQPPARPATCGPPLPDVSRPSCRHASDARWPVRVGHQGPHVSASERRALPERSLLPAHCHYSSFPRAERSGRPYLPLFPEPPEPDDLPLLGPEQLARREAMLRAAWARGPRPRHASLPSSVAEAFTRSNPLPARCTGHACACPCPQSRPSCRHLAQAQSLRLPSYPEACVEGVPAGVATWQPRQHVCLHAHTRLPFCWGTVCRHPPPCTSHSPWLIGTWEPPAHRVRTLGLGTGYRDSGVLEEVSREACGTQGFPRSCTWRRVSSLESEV
UniProt Q62645, whole entry, looked up: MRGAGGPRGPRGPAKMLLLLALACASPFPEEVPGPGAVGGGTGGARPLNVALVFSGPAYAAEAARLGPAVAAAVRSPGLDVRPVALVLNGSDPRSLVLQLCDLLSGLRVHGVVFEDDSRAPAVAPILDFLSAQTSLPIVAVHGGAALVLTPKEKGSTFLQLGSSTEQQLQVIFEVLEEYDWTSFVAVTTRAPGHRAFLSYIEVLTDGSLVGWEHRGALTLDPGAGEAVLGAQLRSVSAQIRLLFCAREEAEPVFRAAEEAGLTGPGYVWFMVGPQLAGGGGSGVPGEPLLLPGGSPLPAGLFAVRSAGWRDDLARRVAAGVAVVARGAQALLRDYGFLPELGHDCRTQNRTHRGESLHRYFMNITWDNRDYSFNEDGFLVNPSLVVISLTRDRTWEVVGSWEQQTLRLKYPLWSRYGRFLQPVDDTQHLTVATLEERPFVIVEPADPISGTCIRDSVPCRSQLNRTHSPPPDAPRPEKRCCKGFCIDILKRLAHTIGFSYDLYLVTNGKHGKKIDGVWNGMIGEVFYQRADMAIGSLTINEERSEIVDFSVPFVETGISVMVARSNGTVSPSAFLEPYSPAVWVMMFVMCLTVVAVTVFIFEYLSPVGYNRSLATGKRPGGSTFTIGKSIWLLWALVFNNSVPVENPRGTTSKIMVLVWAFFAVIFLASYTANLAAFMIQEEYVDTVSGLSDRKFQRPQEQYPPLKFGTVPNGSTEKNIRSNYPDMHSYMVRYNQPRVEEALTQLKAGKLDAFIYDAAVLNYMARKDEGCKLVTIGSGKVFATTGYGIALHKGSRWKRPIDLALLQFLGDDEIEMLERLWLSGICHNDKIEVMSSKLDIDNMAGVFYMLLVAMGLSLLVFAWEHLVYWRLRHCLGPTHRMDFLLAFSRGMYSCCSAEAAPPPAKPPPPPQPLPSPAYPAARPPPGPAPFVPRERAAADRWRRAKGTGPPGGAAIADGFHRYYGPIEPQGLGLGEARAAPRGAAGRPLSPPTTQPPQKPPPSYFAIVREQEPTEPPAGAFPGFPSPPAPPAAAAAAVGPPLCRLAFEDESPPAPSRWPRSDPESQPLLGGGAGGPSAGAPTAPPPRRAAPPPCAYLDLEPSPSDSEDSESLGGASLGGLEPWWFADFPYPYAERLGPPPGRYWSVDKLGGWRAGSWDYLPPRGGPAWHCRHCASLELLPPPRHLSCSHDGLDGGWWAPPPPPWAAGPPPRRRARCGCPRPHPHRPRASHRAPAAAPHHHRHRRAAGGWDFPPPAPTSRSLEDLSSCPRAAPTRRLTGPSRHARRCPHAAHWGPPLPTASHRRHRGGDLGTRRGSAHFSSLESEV

Assay [2] addresses Ionotropic glutamate receptor NMDA 1/2D (Rattus norvegicus) (UniProt P35439+Q62645). Kind of assay: Positive allosteric modulation of recombinant rat GluN1/GluN2D receptor expressed in xenopus laevis oocyte assessed as potentiation of glutamate and glycine-induced current response at 30 uM at holding potential -40mV by two electrode voltage clamp method relative to control. In short, it runs like this:
as §1

As for `COc1ccc(OCC2c3ccc(OC)cc3CCN2C(=O)c2cccc(Cl)c2)cc1` (centres undefined), the Emax in assay [1] was found to be 240%.

Consider `CCOc1ccc(OCC2c3ccc(OC(C)C)cc3CCN2C(=O)c2cccc(C(F)(F)F)c2)cc1` (centres undefined), for which, in assay [1], the Activity is 129% and the Emax was 130%. The Activity in assay [2] worked out at 95%.

These data come from ChEMBL document CHEMBL4011622, “The Structure-Activity Relationship of a Tetrahydroisoquinoline Class of N-Methyl-d-Aspartate Receptor Modulators that Potentiates GluN2B-Containing N-Methyl-d-Aspartate Receptors” (J Med Chem, 2017).
